Like-named read-outs stand apart in the source and are kept apart here.
Biological target: TYK2 (Homo sapiens, UniProt P29597)
Assay: TYK2 MSD degradation in OCI-LY10 cells
Settings: for TYK2 MSD OCI-LY10 Dmax %: 4 to 24 hours incubation
Experimental: Example 7. TYK2 MSD Degradation
Degradation of TYK2 in cells was quantitatively measured using Meso Scale Discovery (MSD) technology. OCI-LY10 cells were seeded in 96-well plates with a density of 0.4 million cells per well in 100 μl fresh media. Compounds were then added to the assay plates with a final top concentration of 1 to 10 μM in a 1:3 dilution series with total of 9 doses. The assay plates were then incubated for 4 to 24 hours at 37° C. under […]. The assay plates were then centrifuged for 5 minutes, and the cell pellets were treated with 100 μl/well RIPA lysis buffer (Boston Bioproducts, BP-115D) with protease and phosphatase inhibitors (Roche, 05892791001 and 04906837001). To prepare MSD assay plates (MSD, L15XA), the plates were coated with the capture antibody (Santa Cruz Biotechnology, SC-5271) in PBS, at 40 μl/well. The plates were then incubated overnight at 4° C., washed 3 times with 150 μl/well TBST buffer (Cell Signaling Technology, 9997S) and blocked with 150 μl/well blocking buffer (MSD, R93BA-4). Cell lysates were then added to MSD assay plates and the plates were incubated at room temperature for 1 hour. The plates were then washed 3 times with 150 μl/well TBST buffer and 25 μl/well primary detection antibody (Cell Signaling Technology, #9312). The assay plates were then incubated at room temperature for 1 hour, washed 3 times with 150 μl/well TBST buffer, and 25 μl/well secondary detection antibody, SULFO-TAG anti-rabbit antibody (MSD, R32AB-1) were added. The assay plates were then incubated at room temperature for 1 hour, washed 3 times with 150 μl/well TB ST buffer, and 150 μl/well MSD reading buffer (MSD, R92TC-2) were added. The plates were then analyzed by an MSD reader. The data was analyzed by GraphPad Prism and the dose dependent TYK2 degradation was fit using the four-parameter inhibitor vs. response nonlinear regression.
The letter codes for TYK2 DC50 include: A (<1 nM); B (i to <10 nM); C (10 to 100 nM); D (>100 nM); and E (not tested). The letter codes for TYK2 Dmax % include: A (>90%); B (90 to >75%); C (75 to 50%); D (<50%); and E (not tested).

By UniProt entry, the sequences of proteins in these tests, tags left out.
UniProt P29597, whole entry: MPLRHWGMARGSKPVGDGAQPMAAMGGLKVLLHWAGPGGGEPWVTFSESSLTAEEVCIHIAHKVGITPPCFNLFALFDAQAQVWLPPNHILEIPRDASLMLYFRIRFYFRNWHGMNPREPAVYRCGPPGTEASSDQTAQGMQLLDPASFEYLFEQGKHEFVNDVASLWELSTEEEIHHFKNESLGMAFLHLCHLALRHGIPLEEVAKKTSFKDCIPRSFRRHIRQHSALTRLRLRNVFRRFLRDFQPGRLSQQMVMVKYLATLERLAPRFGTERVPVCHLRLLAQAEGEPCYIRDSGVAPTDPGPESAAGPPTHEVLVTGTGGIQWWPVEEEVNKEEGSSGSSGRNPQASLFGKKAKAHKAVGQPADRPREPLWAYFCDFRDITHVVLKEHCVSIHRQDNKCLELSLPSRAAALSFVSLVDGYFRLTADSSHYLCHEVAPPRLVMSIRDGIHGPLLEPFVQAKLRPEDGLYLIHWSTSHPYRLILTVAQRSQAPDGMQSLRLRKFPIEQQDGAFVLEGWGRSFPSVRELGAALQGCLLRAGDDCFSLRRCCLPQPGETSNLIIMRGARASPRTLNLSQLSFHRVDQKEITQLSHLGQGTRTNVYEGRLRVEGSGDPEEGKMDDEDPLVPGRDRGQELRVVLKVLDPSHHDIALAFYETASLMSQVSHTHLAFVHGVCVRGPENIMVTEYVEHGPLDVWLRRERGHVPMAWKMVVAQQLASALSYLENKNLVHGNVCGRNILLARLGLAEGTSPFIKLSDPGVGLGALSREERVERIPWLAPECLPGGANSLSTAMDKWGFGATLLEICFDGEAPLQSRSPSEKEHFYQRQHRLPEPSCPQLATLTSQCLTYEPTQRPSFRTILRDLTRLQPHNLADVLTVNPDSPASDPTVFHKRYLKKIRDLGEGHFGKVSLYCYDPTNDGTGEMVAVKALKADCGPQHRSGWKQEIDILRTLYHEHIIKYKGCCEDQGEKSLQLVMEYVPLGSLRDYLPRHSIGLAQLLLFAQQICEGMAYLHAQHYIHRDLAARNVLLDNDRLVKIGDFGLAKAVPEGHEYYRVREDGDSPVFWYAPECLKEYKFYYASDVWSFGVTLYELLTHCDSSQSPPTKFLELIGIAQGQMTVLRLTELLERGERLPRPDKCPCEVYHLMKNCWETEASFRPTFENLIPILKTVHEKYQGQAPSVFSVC

[1] = TYK2 degradation in OCI-LY10 cells
[2] = read-out: TYK2 MSD OCI-LY10 Rel-DC50, TYK2 degradation in OCI-LY10 cells, 4 to 24 hours incubation
[3] = read-out: TYK2 MSD OCI-LY10 Rel-DC50, OCI-LY10 cells, 4 to 24 hours incubation

Row | Compound | TYK2 MSD OCI-LY10 Dmax % [1] | DC50 [2] | TYK2 MSD OCI-LY10 Dmax % (OCI-LY10 cells) | DC50 [3]
1 | CNc1cc(N2CCc3c(CN4CC[C@@H](N5CCC6(CCN(C(=O)c7cc(Cl)c(C)c(N8CCC(=O)NC8=O)c7)CC6)CC5)C(F)(F)C4)cccc32)nn2c(C(=O)N[C@@H]3CC[C@H]3OC)cnc12 | A (A (>90%)) | < 1 nM | – | –
2 | CO[C@@]1(c2cc(C)cc(-c3cn(CCC4CCN(CC5CCN(c6ccc(C7CCC(=O)NC7=O)c(Cl)c6)CC5)CC4)c4cnc(NC(C)=O)cc34)n2)CCOC1 (stereo partly shown) | D (D (<50%)) | < 10 nM | – | –
3 | CNc1cc(N2CCc3c(-c4ncc(CN5CC6(CCN(C(=O)c7cc(C)c(Cl)c(N8CCC(=O)NC8=O)c7)CC6(F)F)C5)cc4F)cccc32)nn2c(C(=O)N[C@@H]3CC[C@H]3F)cnc12 | A (A (>90%)) | < 1 nM | – | –
4 | CNc1cc(N2CCc3c(-c4cc(CN5CCN(c6ccc7c(N8CCC(=O)NC8=O)cncc7c6)CC5)ccn4)cccc32)nn2c(C(=O)NC3CC3)cnc12 | C (C (75 to 50%)) | < 10 nM | – | –
5 | CNc1cc(N2CCc3c(C#CCN4CCN(C(=O)c5ccc(Cl)c(N6CCC(=O)NC6=O)c5)CC4)cccc32)nn2c(C(=O)N[C@@H]3C[C@@H]3F)cnc12 | C (C (75 to 50%)) | 10 to 100 nM | – | –
6 | CNc1cc(N2CCc3c(-c4ccc(CN5CCC(N6CC(CN7CCN(c8ccc9c(c8)n(C)c(=O)n9C8CCC(=O)NC8=O)CC7)C6)C(F)(F)C5)cn4)cccc32)nn2c(C(=O)N[C@@H]3C[C@@H]3F)cnc12 (stereo partly shown) | – | – | B (B (90 to >75%)) | < 1 nM
7 | CNc1cc(N2CCc3c2cccc3C23CC(CN4CCN(C5CCN(C(=O)c6cc(N7CCC(=O)NC7=O)c(Cl)c(C)n6)CC5(F)F)CC4)(C2)C3)nn2c(C(=O)N[C@@H]3CC[C@H]3OC)cnc12 (stereo partly shown) | B (B (90 to >75%)) | < 1 nM | – | –
8 | CO[C@@]1(c2cc(C)cc(-c3cn(C4CN(CC5CCN(c6ccc(NC7CCC(=O)NC7=O)cc6F)CC5)C4)c4cnc(NC(C)=O)cc34)n2)CCOC1 (stereo partly shown) | D (D (<50%)) | > 100 nM | – | –
9 | CNc1cc(N2CCc3c(CN4CC[C@H](N5CCC6(CCN(C(=O)c7cc(N8CCC(=O)NC8=O)c(Cl)c(C)n7)CC6)CC5)C(F)(F)C4)cc(F)cc32)nn2c(C(=O)N[C@@H]3CC[C@H]3OC)cnc12 | A (A (>90%)) | < 1 nM | – | –
10 | CO[C@@]1(c2cc(C)cc(-c3cn(C4CCN(CC5CCN(c6ccc(Cl)c(C7CCC(=O)NC7=O)c6)CC5)CC4)c4cnc(NC(C)=O)cc34)n2)CCOC1 (stereo partly shown) | D (D (<50%)) | > 100 nM | – | –
11 | CNc1cc(N2CCc3c(CN4CCC(CN5CCC6(CC5)CCN(C(=O)c5cc(C)c(Cl)c(N7CCC(=O)NC7=O)c5)CC6)C(F)(F)C4)cc(F)cc32)nn2c(C(=O)N[C@@H]3CC[C@H]3OC)cnc12 (stereo partly shown) | B (B (90 to >75%)) | < 1 nM | – | –
12 | COC1(c2cc(-c3ccc(CN4CCC5(CCN(C(=O)c6ccc(Cl)c(N7CCC(=O)NC7=O)c6)CC5)C(F)(F)C4)nc3)cc(-c3cn(C)c4cnc(NC(C)=O)cc34)n2)CCOC1 (stereo not shown) | A (A (>90%)) | < 1 nM | – | –
13 | CNc1cc(N2CCc3c(-c4ccc(CN5CC[C@H](N6CCN(c7ccc8c(c7)n(C)c(=O)n8C7CCC(=O)NC7=O)CC6)C(F)(F)C5)cn4)cccc32)nn2c(C(=O)N[C@@H]3C[C@@H]3F)cnc12 (stereo partly shown) | B (B (90 to >75%)) | < 1 nM | – | –
14 | CNc1cc(N2CCc3c(C#CCN4CCN(C5CCN(C(=O)c6ccc(Cl)c(N7CCC(=O)NC7=O)c6)CC5)CC4)cccc32)nn2c(C(=O)N[C@@H]3C[C@@H]3F)cnc12 | – | – | B (B (90 to >75%)) | < 1 nM
15 | CNc1cc(N2CCc3c(-c4ccc(CN5CC6(CCC(Oc7ccc(Cl)c(C8CCC(=O)NC8=O)c7)CC6)C5)cn4)cccc32)nn2c(C(=O)N[C@@H]3C[C@@H]3F)cnc12 (stereo partly shown) | – | – | C (C (75 to 50%)) | < 10 nM
16 | CNc1cc(N2CCc3c(-c4ccc(CN5CC6(CCN(C(=O)c7ccc(Cl)c(C8CCC(=O)NC8=O)c7)CC6)C5)cn4)cccc32)nn2c(C(=O)N[C@@H]3C[C@@H]3F)cnc12 (stereo partly shown) | B (B (90 to >75%)) | < 1 nM | – | –
17 | COC1(c2cc(C)cc(-c3cn(CC4CCN(CC5CCN(c6ccc(C(=O)NC7CCC(=O)NC7=O)c(F)c6)CC5)CC4)c4cnc(NC(C)=O)cc34)n2)CCOC1 (stereo not shown) | D (D (<50%)) | > 100 nM | – | –
18 | CNc1cc(N2CCc3c(CN4CCC(CN5CCC6(CC5)CCN(C(=O)c5cc(Cl)c(C)c(N7CCC(=O)NC7=O)c5)CC6)C(F)(F)C4)cccc32)nn2c(C(=O)N[C@@H]3CC[C@H]3OC)cnc12 (stereo partly shown) | A (A (>90%)) | < 1 nM | – | –
19 | CNc1cc(N2CCc3c(-c4ccc(CN5CCC6(CCN(C(=O)c7cc(N8CCC(=O)NC8=O)c(C)cc7Cl)CC6)C(F)(F)C5)cn4)cccc32)nn2c(C(=O)N[C@@H]3C[C@@H]3F)cnc12 | – | – | B (B (90 to >75%)) | < 10 nM
20 | CNc1cc(N2CCc3c(-c4ccc(CN5CCN(CCc6ccc(Cl)c(C7CCC(=O)NC7=O)c6)CC5)cn4)cccc32)nn2c(C(=O)N[C@@H]3C[C@@H]3F)cnc12 (stereo partly shown) | D (D (<50%)) | < 10 nM | – | –
21 | CNc1cc(N2CCc3c(-c4ccc(CN5CC6(CCN(C(=O)c7ccc(Cl)c(N8CCC(=O)NC8=O)c7)CC6(F)F)C5)cn4)cccc32)nn2c(C(=O)N[C@@H]3CC3(F)F)cnc12 | – | – | B (B (90 to >75%)) | < 1 nM
22 | CNc1cc(N2CCc3c(-c4ncc(CN5CC6(CCN(C(=O)c7cc(C)c(Cl)c(N8CCC(=O)NC8=O)c7)CC6(F)F)C5)cc4F)cccc32)nn2c(C(=O)N[C@@H]3CC[C@H]3OC)cnc12 | A (A (>90%)) | < 1 nM | – | –
23 | CNc1cc(N2CCc3c(-c4ccc(N5CC6(CCN(C(=O)c7ccc(Cl)c(C8CCC(=O)NC8=O)c7)CC6)C5)cn4)cccc32)nn2c(C(=O)N[C@@H]3C[C@@H]3F)cnc12 (stereo partly shown) | – | – | D (D (<50%)) | < 10 nM
24 | CNc1cc(N2CCc3c(CN4CC[C@@H](N5CCC6(CC5)CN(C(=O)c5cc(N7CCC(=O)NC7=O)c(Cl)c(C)n5)C6)C(F)(F)C4)cccc32)nn2c(C(=O)N[C@@H]3CC[C@H]3OC)cnc12 | A (A (>90%)) | < 1 nM | – | –
25 | CNc1cc(N2CCc3c(-c4ncc(CN5CC6(CCN(C(=O)c7cc(C)c(Cl)c(N8CCC(=O)NC8=O)c7)CC6(F)F)C5)cc4F)cc(F)cc32)nn2c(C(=O)N[C@@H]3CC[C@H]3OC)cnc12 | A (A (>90%)) | < 1 nM | – | –
26 | CNc1cc(N2CCc3c(-c4ccc(N5CC6(CCN(C(=O)c7ccc(C8CCC(=O)NC8=O)c(Cl)c7)CC6)C5)cn4)cccc32)nn2c(C(=O)N[C@@H]3C[C@@H]3F)cnc12 (stereo partly shown) | – | – | B (B (90 to >75%)) | < 10 nM
27 | CNc1cc(N2CCc3c(-c4ncc(CN5CCC6(CCN(C(=O)c7cc(C)c(Cl)c(N8CCC(=O)NC8=O)c7)CC6)C(F)(F)C5)cn4)cccc32)nn2c(C(=O)N[C@@H]3CC[C@H]3OC)cnc12 | A (A (>90%)) | < 1 nM | – | –
28 | CNc1cc(N2CCc3c(CN4CC[C@H](N5CCC(CC6CCN(C(=O)c7cc(N8CCC(=O)NC8=O)c(Cl)c(C)n7)CC6)CC5)C(F)(F)C4)cccc32)nn2c(C(=O)N[C@@H]3CC[C@H]3OC)cnc12 | B (B (90 to >75%)) | < 10 nM | – | –
29 | COC1(c2cc(-c3ccc(CN4CCC(N5CCN(c6ccc7c(C8CCC(=O)NC8=O)nn(C)c7c6)CC5)C(F)(F)C4)cn3)cc(-c3cn(C)c4cnc(NC(C)=O)cc34)n2)CCOC1 (stereo not shown) | B (B (90 to >75%)) | < 1 nM | – | –

From patent US20260125400A1, “TYK2 DEGRADERS AND USES THEREOF” (Kymera Therapeutics, Inc., priority 2023, published 2026)
